Source: patent US10442819B2, “Tricyclic compounds as inhibitors of mutant IDH enzymes” (Merck Sharp & Dohme Corp., priority 2014, dated 2019)

Chains of the proteins cited; added tags and fusions are not shown.
UniProt O75874, whole entry R132H: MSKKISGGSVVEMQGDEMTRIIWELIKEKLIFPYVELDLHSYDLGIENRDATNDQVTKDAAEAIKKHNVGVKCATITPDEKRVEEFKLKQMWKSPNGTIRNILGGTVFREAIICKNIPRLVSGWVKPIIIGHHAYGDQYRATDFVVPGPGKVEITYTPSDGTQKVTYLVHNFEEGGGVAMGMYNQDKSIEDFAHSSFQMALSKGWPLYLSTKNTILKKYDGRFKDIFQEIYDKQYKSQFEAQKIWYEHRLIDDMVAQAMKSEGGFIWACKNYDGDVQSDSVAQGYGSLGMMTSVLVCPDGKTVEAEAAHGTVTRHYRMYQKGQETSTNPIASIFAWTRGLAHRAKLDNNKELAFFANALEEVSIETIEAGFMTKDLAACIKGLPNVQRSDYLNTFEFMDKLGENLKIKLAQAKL

Target: R132H mutant IDH1 enzyme (Homo sapiens (Human), UniProt O75874, R132H)
Experiment: R132H IDH1 Enzymatic Assay
Type: biochemical
Details: R132H mutant IDH1 enzyme 1.5 nM final; luminescence readout; read-out: IC50

Compound | IC50
O=C([C@H]1CC[C@H](N2C[C@H](F)[C@@H](F)C2)CC1)N1Cc2cccnc2Nc2ccc(N3CCOCC3)cc21 [Example 479, 6-({trans-4-[(3S,4S)-3,4-difluoropyrrolidin-1-yl]cyclohexyl}carbonyl)-8-morpholin-4-yl-6,11-dihydro-5H-pyrido[2,3-b][1,5]benzodiazepine] | 843 nM
O=C([C@H]1C[C@H](NC2(C(F)(F)F)CC2)C1)N1Cc2cccnc2Nc2ccc(N3CCOCC3)cc21 [Example 480, trans-3-[(8-morpholin-4-yl-5,11-dihydro-6H-pyrido[2,3-b][1,5]benzodiazepin-6-yl)carbonyl]-N-[1-(trifluoromethyl)cyclopropyl]-cyclobutanamine] | 576 nM
O=C([C@H]1CC[C@H](NC2(C(F)(F)F)CC2)CO1)N1Cc2cccnc2Nc2ccc(N3CCOCC3)cc21 [Example 482, (8-morpholino-5,11-dihydro-6H-benzo[b]pyrido[2,3-e][1,4]diazepin-6-yl)((2R,5S)-5-((1-(trifluoromethyl)cyclopropyl)amino)tetrahydro-2H-pyran-2-yl]methanone] | 506 nM
O=C(N1CCC(NC2(C(F)(F)F)CC2)CC1)N1Cc2cccnc2Nc2ccc(N3C[C@@H]4C[C@H]3CO4)cc21 [Example 483, 1-({8-[(1S,4S)-2-oxa-5-azabicydo[2.2.1]hept-5-yl]-5,11-dihydro-6H-pyrido[2,3-b][1,5]benzodiazepin-6-yl}carbonyl)-N-[1-(trifluoromethyl)cyclopropyl]-piperidin-4-amine] | 123 nM
CO[C@H]1CC[C@H](C(=O)N2Cc3cccnc3Nc3ccc(CNC4(C(F)(F)F)CC4)cc32)CC1 [Example 484, N-({6-[(Trans-4-methoxycyclohexyl)carbonyl]-6,11-dihydro-5H-pyrido[2,3-b][1,5]benzodiazepin-8-yl}methyl)-1-(trifluoromethyl)cyclopropanamine] | 209 nM
CO[C@H]1CC[C@@H](C(=O)N2Cc3cccnc3Nc3ccc(CNC4(C(F)(F)F)CC4)cc32)CC1 [Example 485, N-({6-[(Cis-4-methoxycyclohexyl)carbonyl]-6,11-dihydro-5H-pyrido[2,3-b][1,5]benzodiazepin-8-yl}methyl)-1-(trifluoromethyl)cyclopropanamine] | 102 nM
CO[C@H]1CC[C@@H](C(=O)N2Cc3cccnc3Nc3ccc(CN(C)C4COC4)cc32)CC1 [Example 486, N-({6-[(cis-4-methoxycyclohexyl)carbonyl]-6,11-dihydro-5H-pyrido[2,3-b][1,5]benzodiazepin-8-yl}-methyl)-N-methyloxetan-3-amine] | 418 nM
CO[C@H]1CC[C@H](C(=O)N2Cc3cccnc3Nc3ccc(CN4CC(F)(F)C4)cc32)CC1 [Example 487, 8-[(3,3-difluoroazetidin-1-yl)methyl]-6-[(trans-4-methoxycyclohexyl)carbonyl]-6,11-dihydro-5H-pyrido[2,3-b][1,5]benzodiazepine] | 308 nM
CC(C)OC1CCC(C(=O)N2Cc3cccnc3Nc3ccc(CN4C[C@@H]5C[C@H]4CO5)cc32)CC1 (stereo partly drawn) [Example 488, 6-{[4-(1-methylethoxy)cyclohexyl]carbonyl}-8-[(1S,4S)-2-oxa-5-azabicyclo[2.2.1]hept-5-ylmethyl]-6,11-dihydro-5H-pyrido[2,3-b][1,5]benzodiazepine] | 378 nM
CO[C@H]1CC[C@H](C(=O)N2Cc3cccnc3Nc3ccc(N4CCOC4=O)cc32)CC1 [Example 489, 3-{6-[(Trans-4-methoxycyclohexyl)carbonyl]-6,11-dihydro-5H-pyrido[2,3-b][1,5]benzodiazepin-8-yl}-1,3-oxazolidin-2-one] | 876 nM
COC1CCC(C(=O)N2Cc3cccnc3Nc3ccc(N4C(=O)OCC4C)cc32)CC1 (centres unmarked) [Example 490, 3-{6-[(4-methoxycyclohexyl)carbonyl]-6,11-dihydro-5H-pyrido[2,3-b][1,5]benzodiazepin-8-yl}-4-methyl-1,3-oxazolidin-2-one] | 529 nM
COC1CCC(C(=O)N2Cc3cccnc3Nc3ccc(N4C(=O)OC[C@@H]4C(C)C)cc32)CC1 (stereo partly drawn) [Example 491, (4S)-3-{6-[(4-methoxycyclohexyl)carbonyl]-6,11-dihydro-5H-pyrido[2,3-b][1,5]benzodiazepin-8-yl}-4-(1-methylethyl)-1,3-oxazolidin-2-one] | 19 nM
COC1CCC(C(=O)N2Cc3cccnc3Nc3ccc(N4C(=O)OC[C@@H]4C)cc32)CC1 (some centres unmarked) [Example 492, (I4S)-3-{6-[(4-methoxycyclohexyl)carbonyl]-6,11-dihydro-5H-pyrido[2,3-b][1,5]benzodiazepin-8-yl}-4-methyl-1,3-oxazolidin-2-one] | 974 nM
CC(C)[C@H]1OCC(=O)N1c1ccc2c(c1)N(C(=O)C1CCC(C(F)(F)F)CC1)Cc1cccnc1N2 (some centres unmarked) [Example 493] | 4 nM
CO[C@H]1CC[C@H](C(=O)N2Cc3cccnc3Nc3ccc(N4CCCC4=O)cc32)CC1 [Example 494, 1-{6-[(trans-4-methoxycyclohexyl)carbonyl]-6,11-dihydro-5H-pyrido[2,3-b][1,5]benzodiazepin-8-yl}pyrrolidin-2-one] | 763 nM
CO[C@H]1CC[C@H](C(=O)N2Cc3cccnc3Nc3ccc(N4CCC4=O)cc32)CC1 [Example 495, 1-{6-[(trans-4-methoxycyclohexyl)carbonyl]-6,11-dihydro-5H-pyrido[2,3-b][1,5]benzodiazepin-8-yl}azetidin-2-one] | 543 nM
C=CC(=O)N1CC2(CCN2c2ccc3c(c2)N(C(=O)C2CC(C)(C)C2)Cc2cccnc2N3)C1 [Example 496, 8-(6-Acryloyl-1,6-diazaspiro[3.3]hept-1-yl)-6-[(3,3-dimethylcyclobutyl)carbonyl]-6,11-dihydro-5H-pyrido[2,3-b][1,5]benzodiazepine] | 3340 nM
C=CC(=O)N1CC2CCC1CN2c1ccc2c(c1)N(C(=O)C1CC(C)(C)C1)Cc1cccnc1N2 (centres unmarked) [Example 497, 8-(5-acryloyl-2,5-diazabicyclo[2.2.2]oct-2-yl)-6-[(3,3-dimethylcyclobutyl)carbonyl]-6,11-dihydro-5H-pyrido[2,3-b][1,5]benzodiazepine] | 76 nM
C=CC(=O)N1C[C@@H]2CC[C@H]1CN2c1ccc2c(c1)N(C(=O)C1CC(C)(C)C1)Cc1cccnc1N2 [Example 498, 8-[(1S,4S)-5-acryloyl-2,5-diazabicyclo[2.2.2]oct-2-yl]-6-[(3,3-dimethylcyclobutyl)carbonyl]-6,11-dihydro-5H-pyrido[2,3-b][1,5]benzodiazepine] | 42 nM
C=CC(=O)N1C[C@H]2CC[C@@H]1CN2c1ccc2c(c1)N(C(=O)C1CC(C)(C)C1)Cc1cccnc1N2 [Example 499, 8-[(1R,4R)-5-acryloyl-2,5-diazabicyclo[2.2.2]oct-2-yl]-6-[(3,3-dimethylcyclobutyl)carbonyl]-6,11-dihydro-5H-pyrido[2,3-b][1,5]benzodiazepine] | 125 nM
C=CC(=O)N1CCN(c2ccc3c(c2)N(C(=O)C2CC(C)(C)C2)Cc2cccnc2N3)CC1 [Example 500, 8-(4-acryloylpiperazin-1-yl)-6-[(3,3-dimethylcyclobutyl)carbonyl]-6,11-dihydro-5H-pyrido[2,3-b][1,5]benzodiazepine] | 463 nM
CCC(=O)N1CC2CCC1CN2c1ccc2c(c1)N(C(=O)C1CC(C)(C)C1)Cc1cccnc1N2 (centres unmarked) [Example 501, 6-[(3,3-dimethylcyclobutyl)carbonyl]-8-(5-propanoyl-2,5-diazabicyclo[2.2.2]oct-2-yl)-6,11-dihydro-5H-pyrido[2,3-b][1,5]benzodiazepine] | 98 nM
CCC(=O)N1c2ccc(N3CC4CCC3CN4C(=O)CC)cc2N(C(=O)C2CC(C)(C)C2)Cc2cccnc21 (centres unmarked) [Example 502, 6-[(3,3-dimethylcyclobutyl)carbonyl]-11-propanoyl-8-(5-propanoyl-2,5-diazabicyclo[2.2.2]oct-2-yl)-6,11-dihydro-5H-pyrido[2,3-b][1,5]benzodiazepine] | 574 nM
C[C@H](N(C)C1CCC(C(=O)N2Cc3cccnc3Nc3ccc(N4CCOCC4)cc32)CC1)C(F)(F)F (stereo partly drawn) [Example 503, Trans-N-methyl-4-[(8-morpholin-4-yl-5,11-dihydro-6H-pyrido[2,3-b][1,5]benzodiazepin-6-yl)carbonyl]-N-[(1)-2,2,2-trifluoro-1-methylethyl]cyclohexanamine] | 73 nM
CN(CC(F)(F)F)[C@H]1CC[C@H](C(=O)N2Cc3cccnc3Nc3ccc(N4CCOCC4)cc32)CC1 [Example 504, trans-N-methyl-4-[(8-morpholin-4-yl-5,11-dihydro-6H-pyrido[2,3-b][1,5]benzodiazepin-6-yl)carbonyl]-N-(2,2,2-trifluoroethyl)cyclohexanamine] | 273 nM
CN(CC(F)(F)F)[C@H]1CC[C@@H](C(=O)N2Cc3cccnc3Nc3ccc(N4CCOCC4)cc32)CC1 [Example 505, cis-N-methyl-4-[(8-morpholin-4-yl-5,11-dihydro-6H-pyrido[2,3-b][1,5]benzodiazepin-6-yl)carbonyl]-N-(2,2,2-trifluoroethyl)cyclohexanamine] | 502 nM
C[C@H](N(C)[C@H]1CC[C@@H](C(=O)N2Cc3cccnc3Nc3ccc(N4CCOCC4)cc32)CC1)C(F)(F)F [Example 506, cis-N-methyl-4-[(8-morpholin-4-yl-5,11-dihydro-6H-pyrido[2,3-b][1,5]benzodiazepin-6-yl)carbonyl]-N-[(1S)-2,2,2-trifluoro-1-methylethyl]cyclohexanamine] | 164 nM
C[C@H](N(C)[C@H]1CC[C@@H](C(=O)N2Cc3cccnc3Nc3ccc(C4CCOCC4)cc32)CC1)C(F)(F)F [Example 507, cis-N-methyl-4-{[8-(tetrahydro-2H-pyran-4-yl)-5,11-dihydro-6H-pyrido[2,3-b][1,5]benzodiazepin-6-yl]carbonyl}-N-[(1S)-2,2,2-trifluoro-1-methylethyl]cyclohexanamine] | 43 nM
CC[C@H](N(C)[C@H]1CC[C@H](C(=O)N2Cc3cccnc3Nc3ccc(N4CCOCC4)cc32)CC1)C(F)(F)F [Example 508, trans-N-methyl-4-[(8-morpholin-4-yl-5,11-dihydro-6H-pyrido[2,3-b][1,5]benzodiazepin-6-yl)carbonyl]-N-[(1S)-1-(trifluoromethyl)propyl]-cyclohexanamine] | 39 nM
